Results reported in publication PMC3034713, “Targeting Vascular NADPH Oxidase 1 Blocks Tumor Angiogenesis through a PPARα Mediated Mechanism” (PLoS ONE, 2011).

Test system: 135 different targets including ROS producing and redox-sensitive enzymes
Assay: Pharmacological profiling of 135 different targets
Details: 10 µM

Compound: Cc1c2c(=O)n(-c3ccccc3Cl)[nH]c2cc(=O)n1Cc1ccccn1 [GKT136901]
- inhibition in profiling of 135 different targets: low or no inhibition
